Source: patent publication EP4843994A1, “NOVEL PEPTIDE HAVING MUSCLE FORMATION-PROMOTING ACTIVITY, ANTI-OBESITY ACTIVITY AND ANTI-DIABETIC ACTIVITY AND USES THEREOF” (dated 2026)

Tests used:
[1] = tested on: 3T3-L1 cells; test: Expression of adipogenesis-related proteins in adipocytes (Western blot); settings: 3T3-L1 adipocytes (MDI cocktail), peptide 5 µM, 50 µM, 48 hours
Method: 3T3-L1 cells (preadipocytes, American Type Culture Collection) were cultured in DMEM medium containing 2% BCS (Bovine Calf Serum) (Welgene, Korea). To differentiate 3T3-L1 cells into adipocytes, cells were seeded into 12-well culture plates at a concentration of 1 x 10^5 cells/well, and when the cells became confluent (Day=2), the medium was replaced once more and cultured for an additional 48 hours. After 48 hours (Day=0), the culture medium was replaced with DMEM medium containing 10% FBS, 1% P/S, 1 µg/ml insulin (Sigma, USA), 0.5 mM isobutylmethylxanthine (IBMX) (Sigma, USA), and 1 µM Dexamethasone (Sigma, USA), and cultured. After 2 days (Day=2), the medium was replaced with DMEM medium containing 10% FBS, 1% P/S, and 1 µg/ml insulin, and cultured. After 3 days (Day=5), the medium was replaced with one containing only 10% FBS and 1% P/S, treated with peptides (5 µM, 50 µM), and cultured for 48 hours. After culturing, lysis buffer was added to lyse the cells, and then the protein was obtained by centrifuging at 12,000 rpm and 4°C for 30 minutes. The obtained protein was then quantified using a BCA kit. Subsequently, the protein was electrotransferred onto a membrane after performing SDS-PAGE (sodium dodecyl sulfate-polyacrylamide gel electrophoresis). The membrane to which the protein was attached was blocked by treatment with 5% skim milk, and then the primary antibody was incubated overnight at 4°C. The primary antibodies used are as follows: anti-SREBP1 antibody (Abcam, US); anti-FAS antibody (Cell signaling Technology, USA); anti-C/EBPα antibody (Cell signaling Technology, USA); anti-pACCα antibody (Cell signaling Technology, USA); anti-β-actin antibody (Santa Cruz, USA). The reactant was washed with PBS-T, then reacted with secondary antibodies (Peroxidase-conjugated AffiniPure Goat Anti-Rabbit IgG (H+L), Jackson immunoResearch, USA; Peroxidase-conjugated AffiniPure Goat Anti-Mouse IgG (H+L), Jackson immunoResearch, USA) at room temperature for 1 hour, washed again with PBS-T, and then visualized by treatment with a Western detection reagent (Elpis Biotech, Daejeon, Korea) using Gel Doc (Bio-Rad, Hercules, CA, USA).
In the above experiment, 3T3-L1 adipocytes were differentiated using an MDI cocktail, and then the inhibitory effect on adipogenesis caused by peptide treatment was confirmed by measuring the expression levels of related factors. SREBP1 (Sterol Regulatory Element Binding Protein-1) is known to induce the synthesis of lipids and cholesterol, FAS is a fatty acid synthase, and C/EBPα (CCAAT/enhancer-binding protein α) is known to induce adipogenesis through PPAR-γ (Genes Dev. 2002 Jan 1; 16(1): 22-26). […]

[2] = tested on: HepG2 cells; test: Immunofluorescence analysis of adipogenesis and lipolysis markers in hepatocytes; settings: 350 µM oleic acid, peptide 5 µM, 50 µM, 48 hours
Method: HepG2 cells (human-derived hepatocytes) were cultured in DMEM medium containing 1% P/S and 10% FBS. When cell confluency reached approximately 70 to 80%, cells were seeded into 6-well culture plates at a concentration of 3 x 10^5 cells/2 ml. Subsequently, when cell confluency in a 6-well culture plate reached approximately 70 to 80%, the medium was replaced with serum-free DMEM. After 4 hours, lipid accumulation was induced by replacing the medium with serum-free DMEM (1% BSA) supplemented with 350 µM oleic acid (Sigma, St. Louis, MO, USA). After inducing lipid accumulation for 24 hours, the cells were replaced with serum-free DMEM (1% BSA) supplemented with 350 µM oleic acid (Sigma, St. Louis, MO, USA) and peptides (5 µM, 50 µM), and cultured for 48 hours. After culture, the cells were fixed with 4% paraformaldehyde (PFA) for 10 minutes at room temperature (RT) and permeated with 0.1% Triton X-100 for 5 minutes. Subsequently, the cells were blocked with PBS, 10% FBS, and 0.1% Triton X-100 for 1 hour at room temperature, then treated with the primary antibody and incubated at room temperature for 1 hour. The primary antibodies used are as follows: anti-FAS antibody (Cell signaling Technology, USA); anti-SREBP1 antibody (Abcam, UK); anti-pACC antibody (Cell signaling Technology, USA); anti-pHSL antibody (Cell signaling Technology, USA); anti-pATGL antibody (Cell signaling Technology, USA); anti-PLIN antibody (Affinity biosciences, USA). After incubation, the cells were washed three times and incubated with a secondary antibody (goat anti-Rabbit IgG H&L, Abcam, USA) at room temperature for 30 minutes. The samples were washed three times, and the nuclei were counterstained with DAPI (Santa Cruz, USA). Images were acquired using a LEICA fluorescence microscope (TCS SP8, LEICA, Germany).

Compound: C[C@@H](O)[C@H](NC(=O)CNC(=O)[C@@H](N)Cc1c[nH]cn1)C(=O)N[C@@H](Cc1ccc(O)cc1)C(=O)O
- expression level of C/EBPα [1]: reduced
- expression level of FAS [1]: reduced
- expression level of SREBP1 [1]: reduced
- expression level of pACCα [1]: increased
- ATG expression level [2]: increased again in a concentration-dependent manner
- FAS expression level [2]: decreased again in a concentration-dependent manner
- expression level of PLIN [2]: increased again in a concentration-dependent manner
- expression level of SREBP1 [2]: decreased again in a concentration-dependent manner
- expression level of pACC [2]: increased again in a concentration-dependent manner
- pHSL expression level [2]: increased again in a concentration-dependent manner
